The data set can be described thus: Drug uptake in human skin fibroblast lysosomes assessed as fold change in corrected total cell fluorescence at 50 uM measured after 2 hrs by LysoTracker Red DND-99 dye based laser scanning confocal microscopy relative to control. The data set is classed as ADME, subcellular, Lysosome.
As for `CN1CCN(CCCC(=O)O[C@H]2C(C)(C)[C@H]3CC[C@]2(C)C3)CC1`, the fold change (FC) was found to be 0.44.

Regarding `C[C@@H]1[C@H]2C[C@@H](C[C@H]1OC(=O)CN1CCN(C)CC1)C2(C)C`, the fold change (FC) turned out to be 0.39. The value for `CC1(C)[C@H]2CC[C@](C)(C2)[C@H]1OC(=O)CCN1CCOCC1` was 0.76; that for `CC1(C)[C@H]2CC[C@](C)(C2)[C@H]1OC(=O)CCCN1CCCCC1` was 0.32; that for `CN1CCN(CC(=O)O[C@H]2C(C)(C)[C@H]3CC[C@]2(C)C3)CC1` was 0.31. Consider `C[C@@H]1[C@H]2C[C@@H](C[C@H]1OC(=O)CCN1CCN(C)CC1)C2(C)C`, for which the fold change (FC) turned out to be 0.39.
